Reference: publication PMC2811323 (The Journal of neuroscience : the official journal of the …, 2009)

Protein sequences, listed by entry. Tags and fused reporters are not part of them. Lines headed by an entry give the natural chain unless they say otherwise; changes in a name come on top.
UniProt P08482: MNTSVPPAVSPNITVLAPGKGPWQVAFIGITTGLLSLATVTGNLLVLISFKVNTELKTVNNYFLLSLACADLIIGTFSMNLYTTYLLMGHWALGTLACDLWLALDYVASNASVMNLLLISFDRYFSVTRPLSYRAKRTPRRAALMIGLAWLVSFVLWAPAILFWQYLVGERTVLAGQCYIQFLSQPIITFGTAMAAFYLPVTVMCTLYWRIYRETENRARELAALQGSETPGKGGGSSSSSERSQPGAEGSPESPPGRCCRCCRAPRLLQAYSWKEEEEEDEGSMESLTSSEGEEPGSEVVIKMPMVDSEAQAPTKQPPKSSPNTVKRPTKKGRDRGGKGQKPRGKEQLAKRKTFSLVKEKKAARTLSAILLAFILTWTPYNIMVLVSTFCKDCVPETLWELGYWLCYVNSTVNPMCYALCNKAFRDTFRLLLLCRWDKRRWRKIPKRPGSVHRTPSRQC

Tests used:
[1] = biological target: T1, rat M1 receptor (Rattus norvegicus, UniProt P08482); details: 1 μM
[2] = tested on: human M2; details: 3 μM BQCA, hM2-Gqi5
[3] = tested on: human M3; details: 3 μM BQCA, hM3
[4] = tested on: rat M4; details: 3 μM BQCA, rM4-Gqi5
[5] = tested on: human M5; details: 3 μM BQCA, hM5
[6] = biological target: rM1 receptor (Rattus norvegicus, UniProt P08482)
[7] = biological target: T1, rat M1 receptor; test: cell-based
[8] = tested on: mPFC layer V neurons, M1 receptor KO mice

| Compound | Effect on the response to an EC20 concentration of ACh ([1]; compared to vehicle) | Effect on calcium when added alone ([1]; no ACh) | Effect on the ACh concentration response curve [2] | Effect on the ACh concentration response curve [3] | Effect on the ACh concentration response curve [4] | Effect on the ACh concentration response curve [5] | Displacement of [3H]-NMS binding [6] | EC50 [7] [nM] | sEPSC amplitude [8] | sEPSC frequency [8] |
| --- | --- | --- | --- | --- | --- | --- | --- | --- | --- | --- |
| COc1ccc(Cn2cc(C(=O)[O-])c(=O)c3ccccc32)cc1.[Na+] [BQCA, Sodium 1-(4-methoxybenzyl)-4-oxo-1,4-dihydroquinoline-3-carboxylate] | greatly enhances | no effect | no effect | no effect | no effect | no effect | no displacement | 267 ± 31 | – | – |
| C[N+](C)(C)CCOC(N)=O [CCh, carbachol] | – | – | – | – | – | – | – | – | 79.4 ± 14.9% and 80.7 ± 5.2% | 186.3 ± 187.4% and 271.7 ± 310.4% |

Several values for one entry are separate records, joined by “and”; a condition that tells them apart may be missing. Identical values can stand only once.
